Consider one compound from patent publication US20130274212A1, “Sesterterpene Compounds and Use Thereof” (SNU R&DB FOUNDATION, priority 2010, published 2013).

Assay [1] concerns C57BL/6J mouse and ob/ob fatty liver models. Nature of the assay: Fatty liver models in mice (LXR agonist T0901317, high fat, MCD diet). The note with it: oral 10 mg/kg. The text has this:
In order to verify efficacy to prevent and treat fatty liver of the compounds according to the present invention, a fatty liver occurrence model by a medicine, a fatty liver occurrence model by high fat, and a fatty liver occurrence model by methione-deficient diet (MCD) were used. The mice fed with general diet (chow diet) was simultaneously administered with a nuclear receptor LXR agonist (T0901317) to induce fatty liver, and then the efficacy to prevent and treat fatty liver by the compound of Chemical Formula I was tested. After the disease animal model was orally administered with CMDD-X (or Compound 7), the fatty liver-related index between the administered group and the control group was measured to verify the efficacy to prevent and treat fatty liver. The mouse fed with only 0.75% carboxylmethyl cellulose, as a medicine delivery, was used as a negative control group. First, the C57BL/6J mouse fed with general feedstuff was orally administered with the LXR agonist [T0901317 (10 mg/kg)] once per day for 5 days, to thereby induce fatty liver. In addition, the compound of Chemical Formula I (CMDD-X and Compound 7, 10 mg/kg) and the LXR agonist were simultaneously administered, to verify efficacy to prevent and treat fatty liver. The C57BL/6J mouse was fed with 35% high-fat feedstuff for 8 weeks, to induce fatty liver, and then CMDD-X (or Compound 7), together with high-fat diet, was orally administered at a dose of 10 mg/kg/day for 6 weeks. The ob/ob animal model was fed with MCD diet for 4 weeks to induce fatty liver and, at the same time, was orally administered with the compound of Chemical Formula I (CMDD-X or Compound 7, 10 mg/kg), to verify the efficacy to prevent and treat the occurrence of fatty liver. As an analysis result, fat absorption into the liver was inhibited in all of the fatty liver occurrence model by medicine, the fatty liver occurrence model by high fat, and the fatty liver occurrence model by MCD.

In assay [2] the test system is BKS.Cg-+Lepr^db/+Lepr^db (db/db) mice. Briefly: Anti-diabetic efficacy in db/db mice (blood sugar, insulin, adiponectin, glucose and insulin tolerance). On the procedure: In the present example, in order to verify efficacy to prevent and treat diabetes of the compound of Chemical Formula I (CMDD-X or Compound 7) according to the present invention, BKS.Cg-+Lepr^db/+Lepr^db (db/db) mice as an insulin-independent diabetes animal model and general mice (C57BL/6J) fed with high-fat feedstuff were used. After the disease animal model was orally administered with CMDD-X, the diabetes-related index between the administered group and the control group was measured to verify the efficacy as an agent for preventing and treating diabetes. BKS.Cg-+Lepr^db/+Lepr^db (db/db) mice (male, 7-week old) as type 2 diabetes animal model were purchased and used. The experiment animals were adapted to a housing environment for 1 week while pellet type general diet (lab-chow) was supplied, and then divided into 2 groups of 18 mice each by randomized block design to have similar blood sugar and body weight. For general mice fed with high-fat feedstuff as another animal model, 6-week old C57BL/6J mice was purchased, and then were adapted to a lap environment for 2 weeks. After that, high-fat diet containing 35% fat diet (weight ratio, Research Diets. Co. Ltd.) was supplied for 14 weeks. The efficacy to prevent and treat diabetes by CMDD-X was observed through oral administration. A mouse fed with only 0.5% carboxylmethyl cellulose, as a medicine delivery, was used as a negative control group. The medicine was orally administered to the db/db mice for 4 weeks, a total of 28 days, and to the C57BL/6J mice, which was fed with the high-fat diet, for the last 6 weeks, at a dose of 10 mg/kg/day. The experiment animals after administration were fasted for 15 hours before autopsy, and then the blood taken from the orbital venous treated with heparin. After that, the plasma was separated by centrifugation of 1,000×g at 4° C. for 15 minutes, and then refrigerated at −70° C. until analysis was conducted to measure the insulin and Adiponectin concentrations. The pancreatic tissue was fixed in 10% formaldehyde solution containing PBS. The other organ tissues were rapidly cooled in the liquid nitrogen immediately after removal thereof, and kept at −70° C. and then analyzed. T-test was conducted with respect to the control group and the administered group, a significant difference of less than 5% (P<0.05) was determined as having have a statistical significance.
In order to measure the blood sugar reduction efficacy of the compound of Chemical Formula I (CMDD-X or Compound 7), the blood was collected through tail veins of the db/db mice before experiment ending, after feeding, and after stomach was empty for 15 hours, and the blood sugar was measured by using a glucose oxidase method. After food intake, the blood sugar of the CMDD-X-administered group was lower than that of the control group by 23.6%, and the blood sugar at the time of an empty stomach was reduced by about 26.3% (FIG. 4). In the Compound 7-administered group, the blood sugar after food intake and the blood sugar at the time of an empty stomach were 27% and 28%, respectively.
The insulin and adiponectin concentrations of the plasma, obtained from the orbital venous of the db/db mice orally administered with CMDD-X (or Compound 7) for 4 weeks, were measured by using an Elisa Kit.
On the end day of the experiment, the db/db mice were fasted for 15 hours, and then intraperitoneally administered with a glucose solution of 1 g per 1 kg body weight. The blood was collected from the tails of the db/db mice according to the time. The results of measurement of blood sugar by the times of the CMDD-X-administered group and the control group were shown in FIG. 8. […] Whereas, in the control group, the glucose sugar level was not recovered to a level before glucose administration even at 120 minutes. […] The final blood sugar of the CMDD-X-administered group was decreased as compared with the control group by 57%. […]

The subject of assay [3] is Gyk, LXR, SREBP1c, SCD1, PPARa, UCP gene expression. Nature of the assay: Gene expression analysis (micro-array, Q-RT PCR) in diabetic mice fed with compound. Here is the method: Gene expression analysis was conducted to establish the mechanism. The gene analysis was conducted by using micro-array and the Q-RT PCR method. In the mice fed with CMDD-X (or Compound 7), expression of Gyk as a glycolysis biomarker was increased (1.3 times), and expressions of LXR, SREBP1c, and SCD1, which are genes of synthesizing fatty acid by using decomposed glucose, were very increased (FIG. 12). Expressions of PPARa and UCP, which are genes for burning the newly generated fat to release heat, were increased (FIG. 13).

Molecules are shown by their SMILES.

With `CC(C)=CCC/C(C)=C/[C@@H]1CC(C)=C[C@]2(C=C(CO)[C@H]3CC(=O)C(C)=C[C@H]3O2)O1`, the “fat absorption into the liver” value in assay [1] (fatty liver models by medicine (T0901317), high fat and MCD) is “inhibited”. For the same compound, in assay [1] (fatty liver models), the “ALT (liver-function biomarker)” value is reported as “reduction”; the “MCP-1 and TNFα (inflammatory cytokines)” value is given as “reduction”; the “blood LDL” value is given as “decreased”; the liver function result is given as “significantly improved”. The “glucose tolerance: blood sugar level after glucose administration” value in assay [2] (glucose 1 g/kg intraperitoneally after 15 hours fasting) is listed as “significantly decreased at 120 minutes”. Moreover, in assay [2] (insulin 3 unit/kg), the “insulin tolerance test: blood sugar after insulin administration” value is “significantly decreased as compared with the control group for 40 minutes after insulin administration” and the “insulin tolerance test: final blood sugar decreased as compared with the control group” value is reported as 57%. Moreover, in assay [2] (oral 10 mg/kg/day, 4 weeks), the “blood sugar after food intake, lower than that of the control group” value is given as 23.6%. The “blood sugar at the time of an empty stomach, reduction” value in assay [2] (oral 10 mg/kg/day, 4 weeks, fasted 15 hours) is recorded as “about 26.3%”. Also, the “Adiponectin polymer in plasma” value in assay [2] (oral 10 mg/kg/day, 4 weeks, p<0.01) is listed as “statistically significant increase”. Further, the “total amount of Adiponectin in plasma” value in assay [2] (oral 10 mg/kg/day, 4 weeks, p<0.05) is listed as “significantly increased”. The “blood insulin concentration, relative to that of the control group” value in assay [2] (oral 10 mg/kg/day, 4 weeks, plasma, Elisa Kit) worked out at 70%. Besides, in assay [3], the “expressions of LXR, SREBP1c, and SCD1” value is on record as “very increased”; the “expressions of PPARa and UCP” value is given as “increased”. Moreover, the “expression of Gyk (glycolysis biomarker), increase” value in assay [3] (micro-array and Q-RT PCR) stood at 1.3 times.
